Measurements: patent US20050085463A1 (priority 2003, published 2005)

Sequences of proteins named here, by UniProt entry; tags and fusion partners are left off.
UniProt P08913, whole entry: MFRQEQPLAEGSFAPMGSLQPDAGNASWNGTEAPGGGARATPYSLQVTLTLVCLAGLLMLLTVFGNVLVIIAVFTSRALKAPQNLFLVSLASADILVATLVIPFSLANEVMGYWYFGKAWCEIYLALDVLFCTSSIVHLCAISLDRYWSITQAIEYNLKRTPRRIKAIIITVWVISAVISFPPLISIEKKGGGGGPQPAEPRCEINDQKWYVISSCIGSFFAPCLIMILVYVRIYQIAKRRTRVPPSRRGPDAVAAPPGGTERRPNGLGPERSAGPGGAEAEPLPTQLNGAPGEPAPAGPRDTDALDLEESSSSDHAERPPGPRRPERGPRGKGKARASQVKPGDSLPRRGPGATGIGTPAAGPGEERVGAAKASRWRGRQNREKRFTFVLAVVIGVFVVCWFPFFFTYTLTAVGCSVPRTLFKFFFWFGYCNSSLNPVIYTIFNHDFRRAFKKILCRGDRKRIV

Biological target: α2A (Alpha 2A) adrenergic receptor (Homo sapiens, UniProt P08913)
Test: R-SAT competitive antagonist assay
Conditions: nr = no significant antagonist or inverse agonist activity up to 1 μM, nr* = nr but significant agonist activity

pKi α2A, competitive antagonist: nr
SMILES: O=C1Cc2cc(CCN3CCN(c4nsc5ccccc45)CC3)c(Cl)cc2N1 [Ziprasidone, reference compound]
